{
  "source": "PubChem BioAssay AID651644",
  "about": "(National Center for Advancing Translational Sciences (NCATS), 2012)",
  "note": "What follows is the remainder of the data, with few or none of the hits. Activity calls are given as the source filed them. Calls come from the whole dose curve; as a rule, active = well fitted falling curve with a large enough effect; inconclusive = small, poorly fitted or top-dose-only effect; inactive = no such curve, though single readings can be large or run the other way. % is set by controls: 0 for no effect and ±100 for the full control effect.",
  "data": [
    {"assay": "qHTS Assay for Inhibitors of the HIV-1 protein Vpr; note: nearly all actives have a fitted effect of over 50% in size", "conditions": "S. pombe RE007 Vpr strain, BacTiter-Glo ATP luminescence, 24 h; at 92.2 µM (top of the series)", "excerpt": "Human immunodeficiency virus type 1 (HIV-1), the causative agent of AIDS, contains a protein called viral protein R (Vpr) that plays an important role in the viral life cycle and the pathogenesis of HIV-1.\nThese Vpr specific activities include cytoplasmic-nuclear shuttling, induction of cell cycle G2 arrest and cell killing. The cytoplasmic-nuclear shuttling is believed to participate in nuclear transport of the proviral integration complex (PIC). The cell cycle G2 arrest induced by Vpr is thought to suppress human immune functions by preventing T cell clonal expansion and to provide an optimized cellular environment for maximal levels of viral replication. In addition, Vpr induces apoptosis, which may contribute to the depletion of CD4 T cells in HIV-infected patients. Since the Vpr-specific activities have been linked to such clinical manifestation of AIDS as activation of viral replication, suppression of host immune responses and depletion of CD4+ T-lymphocytes, identification of new molecular probes that can inhibit the Vpr activities could potentially provide a new approach to reduce Vpr-mediated detrimental effects in HIV-infected patients, and thus prolong patient's lives. Currently, there are no anti-Vpr drugs.\nA fission yeast (Schizosaccharomyces pombe) model system for the Vpr studies has been developed which measures HIV-1 Vpr-induced cell death. […]", "values": [
      {"smiles": "CC(=O)C1CCC2C3CC=C4CC(SC(=N)N)CCC4(C)C3CCC12C", "note": "(stereo unspecified)", "activity change, negative = less growth": "inactive: 49.3%"}
    ]}
  ]
}
